According to patent US20200397913A1, “AXL-SPECIFIC ANTIBODY-DRUG CONJUGATES FOR CANCER TREATMENT” (GENMAB A/S, priority 2015, published 2020):
“Also recorded” adds a separate entry of the source.

What was measured:
LXFA 526 tumors = experiment: Erlotinib-resistant NSCLC PDX model LXFA 526; format: in vivo, NMRI nu/nu mice; conditions: LXFA 526, 50 mg/kg daily for 14 days
LU2511 tumors = experiment: Erlotinib-resistant NSCLC PDX model LU2511; format: in vivo, BALB/c nude mice; conditions: LU2511, 50 mg/kg per os daily for 2 weeks
LU1868 tumors = experiment: Erlotinib-resistant NSCLC PDX model LU1868; format: in vivo, BALB/c nude mice; conditions: LU1868, 50 mg/kg daily for 14 days
LXFA 677 tumors = experiment: NSCLC PDX model LXFA 677; format: in vivo, NMRI nu/nu mice; conditions: LXFA 677, 50 mg/kg daily for 14 days
LU0858 tumors = experiment: Erlotinib-resistant NSCLC PDX model LU0858; format: in vivo, BALB/c nude mice; conditions: LU0858, 50 mg/kg daily for 14 days
LXFA 677_3 tumors = experiment: NSCLC PDX model LXFA 677_3 with acquired resistance to erlotinib; format: in vivo, NMRI nu/nu mice; conditions: LXFA 677_3, 50 mg/kg daily for 14 days

For `C#Cc1cccc(Nc2ncnc3cc(OCCOC)c(OCCOC)cc23)c1` [erlotinib, reference compound], which “effect of erlotinib on tumor growth / Erlotinib resistance” value (LXFA 526 tumors) is on record?
Its value is “had no effect on tumor growth”.

And the “effect of erlotinib on tumor growth / Erlotinib resistance” value (LU2511 tumors)?
Its value is “did not induce anti-tumor activity”.

What about the “effect of erlotinib on tumor growth / Erlotinib resistance” value (LU1868 tumors) of the same compound?
Its value is “had no effect on tumor growth”.

And the “effect of erlotinib on tumor growth / Erlotinib resistance” value (LXFA 677 tumors)?
The value was “induced partial tumor regression; also recorded: sensitive”.

And the “effect of erlotinib on tumor growth / Erlotinib resistance” value (LU0858 tumors)?
Its value is “had no effect on tumor growth”.

What about the “effect of erlotinib on tumor growth / Erlotinib resistance” value (LXFA 677_3 tumors) of the same compound?
Its value is “had no effect on tumor growth”.
